Amino acid sequences for entries named in this document (tags omitted).
UniProt P08173, whole entry: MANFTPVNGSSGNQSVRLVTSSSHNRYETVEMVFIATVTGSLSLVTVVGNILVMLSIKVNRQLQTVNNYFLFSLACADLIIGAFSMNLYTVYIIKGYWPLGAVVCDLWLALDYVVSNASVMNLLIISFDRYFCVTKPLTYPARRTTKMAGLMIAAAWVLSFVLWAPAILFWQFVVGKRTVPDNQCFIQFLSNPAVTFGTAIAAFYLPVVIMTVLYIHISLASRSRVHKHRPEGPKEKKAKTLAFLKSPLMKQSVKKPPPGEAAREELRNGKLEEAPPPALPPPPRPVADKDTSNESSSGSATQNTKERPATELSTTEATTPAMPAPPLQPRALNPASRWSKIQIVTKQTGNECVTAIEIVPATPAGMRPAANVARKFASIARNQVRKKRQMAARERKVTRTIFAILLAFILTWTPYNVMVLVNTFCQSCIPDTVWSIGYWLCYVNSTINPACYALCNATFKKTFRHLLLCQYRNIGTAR

In patent EP0912515B1:

Biological target: cloned human m4 muscarinic receptor (Homo sapiens, UniProt P08173)
Assay: Muscarinic binding activity, 3H-QNB displacement, m4 receptor
Conditions: Ki for m4 divided by Ki for m2
Experimental: The compound of interest is tested for its ability to inhibit binding to the cloned human m1, m2 and m4 muscarinic receptor subtypes. The sources of receptors in these studies were membranes from stably transfected CHO cell lines which were expressing each of the receptor subtypes. Following growth, the cells were pelleted and subsequently homogenized using a Polytron in 50 volumes cold 10 mM Na/K phosphate buffer, pH 7.4 (Buffer B). The homgenates were centrifuged at 40,000 x g for 20 minutes at 4°C. The resulting supernatants were discarded and the pellets were resuspended in Buffer B at a final concentration of 20 mg wet tissue/ml. These membranes were stored at -80°C until utilized in the binding assays described below.
Binding to the cloned human muscarinic receptors was performed using ^3H-quinuclidinyl benzilate (QNB) (Watson et al., 1986). Briefly, membranes (approximately 8, 20, and 14 µg of protein assay for the m1, m2, and m4 containing membranes, respectively) were incubated with ^3H-QNB (final concentration of 100-200 pM) and increasing concentrations of unlabeled drug in a final volume of 2 ml at 25°C for 90 minutes. Non-specific binding was assayed in the presence of 1 µM atropine. The incubations were terminated by vacuum filtration over GF/B glass fiber filters using a Skatron filtration apparatus and the filters were washed with cold 10mM Na/K phosphate butter, pH 7.4. Scintillation cocktail was added to the filters and the vials were incubated overnight. The bound radioligand was quantified in a liquid scintillation counter (50% efficiency). The resulting data were analyzed for IC50 values (i.e. the concentration of compound required to inhibit binding by 50%) using the EBDA computer program (McPherson, 1985).
To determine the degree of selectivity of a compound for binding the m2 receptor, the Ki value for m1 receptors was divided by the Ki value for m2 receptors. A higher ratio indicates a greater selectivity for binding the m2 muscarinic receptor. A similar calculation is made to determine the m4 selectivity.

Row | Compound | m4 Selectivity Ratio (Ki,m4/Ki,m2)
1 | COc1ccc(S(=O)(=O)c2ccc(N(C)C3CCN(C4CCCCC4)CC3)cc2)cc1 | 3.3
2 | N#CN(c1ccc(S(=O)(=O)C2CCCCC2)cc1)C1CCN(C2CCCCC2)CC1 | 1.4
3 | N#CN(c1ccc(S(=O)(=O)c2ccc3c(c2)OCO3)cc1)C1CCN(C2CCCCC2)CC1 | 3.6
4 | C=CCN(c1ccc(S(=O)(=O)c2ccc(OC)cc2)cc1)C1CCN(C2CCCCC2)CC1 | 2.7
5 | COc1ccc([S+]([O-])c2ccc(N(C#N)C3CCN(C4CCCCC4)CC3)cc2)cc1 (stereo not drawn) | 4.4
6 | CC(=O)Nc1ccc([S+]([O-])c2ccc(N(C#N)C3CCN(C4CCCCC4)CC3)cc2)cc1 (stereo not drawn) | 3
